Published antibiotic growth screens (doi:10.1038/s41589-023-01349-8)
Some of the results follow.

Test system: A. baumannii ATCC 17978
Test: relative growth (fraction of control); higher = less inhibition
Conditions: 50 µM

**Q.** Which relative growth does the source give for `O=C1CCC(N2C(=O)c3ccccc3C2=O)C(=O)N1` (centres undefined) here?
**A.** 1.08

**Q.** `O=C1O[C@H](c2ccccc2)[C@H](c2ccccc2)N2[C@H]1[C@@H](C(=O)Nc1nc3ccccc3s1)[C@]1(C(=O)Nc3ccc(C#CCCO)cc31)[C@H]2c1ccc(OCCO)cc1` was tested. Which relative growth did it give?
**A.** 0.782

**Q.** Which relative growth does the source give for `Cc1ccc(S(=O)(=O)N2C[C@H](O)COC[C@@H]3O[C@H](CC(=O)NCc4ccc5c(c4)OCO5)CC[C@H]32)cc1` here?
**A.** 1.04

**Q.** Which relative growth does the source give for `Cc1ccc(S(=O)(=O)N[C@@H]2C=C[C@H](CC(=O)NCCN3CCCCC3)O[C@@H]2CO)cc1` here?
**A.** 1.1

**Q.** For `CN(C)CCCNC(=O)C[C@H]1CC[C@@H](NS(=O)(=O)c2ccccc2)[C@H](CO)O1`, which relative growth is on record?
**A.** 1.03

**Q.** How did the relative growth turn out when `COc1ccc([Si](C)(C)[C@H]2[C@H](CCn3cc(CCO)nn3)O[C@@]3(C(=O)N(C)c4ccccc43)[C@@H]2C)cc1` was run?
**A.** 0.851

**Q.** Which relative growth does the source give for `C[C@H](CO)N1C[C@H](C)[C@@H](CN(C)Cc2ccccn2)Oc2cc(C#CCN(C)C)ccc2S1(=O)=O` here?
**A.** 0.907

**Q.** How did the relative growth turn out when `CC(O)(P(=O)([O-])O)P(=O)([O-])O.[Na+].[Na+]` was run?
**A.** 1.03

**Q.** Which relative growth does the source give for `Cl.N=C(N)NC(=N)N1CCOCC1` here?
**A.** 1.13

**Q.** Which relative growth does the source give for `CCCNC(=O)N[C@@H]1C=C[C@H](CC(=O)N2CCN(C)CC2)O[C@@H]1CO` here?
**A.** 1.05

**Q.** Which relative growth does the source give for `CN(C)Cc1nc(=O)c2ccccc2[nH]1` here?
**A.** 0.88

**Q.** With `CN/C(=C\[N+](=O)[O-])NCCSCc1ccc(CN(C)C)o1.Cl` as the compound, how does the relative growth read?
**A.** 1.08

**Q.** For `O=C(NO)c1ccc(C(=O)N/N=C/[C@H](O)[C@@H](O)[C@H](O)[C@H](O)CO[C@H]2O[C@H](CO)[C@H](O)[C@H](O)[C@H]2O)cc1`, which relative growth is on record?
**A.** 1.11

**Q.** `O=C1OC(CN2CCOCC2)CN1/N=C/c1ccc([N+](=O)[O-])o1` (centres undefined) was tested. Which relative growth did it give?
**A.** 0.969

**Q.** `CC(=O)OCN1CCN(COC(C)=O)C1=O` was tested. Which relative growth did it give?
**A.** 1.13

**Q.** For `Cn1cnc(S(=O)(=O)N2C[C@@H](O)COC[C@H]3O[C@H](CC(=O)N4CCN(c5ccccc5)CC4)CC[C@@H]32)c1`, which relative growth is on record?
**A.** 0.805

**Q.** For `O=C(C[C@H]1CC[C@H](NC(=O)CN2CCOCC2)[C@@H](CO)O1)NCc1cccc(F)c1`, which relative growth is on record?
**A.** 0.992

**Q.** For `CO[C@@H]1CN(C)C(=O)c2ccc(NS(C)(=O)=O)cc2OC[C@H](C)N(C(=O)CN(C)C)C[C@@H]1C`, which relative growth is on record?
**A.** 1.04

**Q.** `CCS(=O)(=O)NCC[C@H]1CC[C@H](NS(=O)(=O)c2cccc(F)c2)[C@H](CO)O1` was tested. Which relative growth did it give?
**A.** 1.04

**Q.** For `Cn1c(=O)c2c(NCCc3ccc(S(N)(=O)=O)cc3)ccnc2n(C)c1=O`, which relative growth is on record?
**A.** 1.05

**Q.** Which relative growth does the source give for `O=C(O)[C@]1(O)C[C@@H](O)[C@@H](O)[C@H](O)C1` here?
**A.** 0.988

**Q.** How did the relative growth turn out when `Cc1ccc(S(=O)(=O)N2C[C@H](O)COC[C@H]3O[C@H](CC(=O)NCc4ccc(Cl)c(Cl)c4)CC[C@@H]32)cc1` was run?
**A.** 1

**Q.** Which relative growth does the source give for `COc1cc2c(cc1OC)CN(C(=O)[C@H]1[C@@H]3C(=O)O[C@@H](c4ccccc4)[C@@H](c4ccccc4)N3[C@@H](c3ccccc3OCCO)[C@]13C(=O)Nc1ccc(C#CC4(O)CCCCCC4)cc13)CC2` here?
**A.** 1.15

**Q.** Which relative growth does the source give for `COc1ccc(/C=C/C(=O)c2cc(O)ccc2O)cc1` here?
**A.** 1.06

**Q.** For `Cc1cccc(Nc2ccccc2C(=O)O)c1C`, which relative growth is on record?
**A.** 1.09

**Q.** With `CCCCOc1ccc(OCCCN2CCOCC2)cc1.Cl` as the compound, how does the relative growth read?
**A.** 0.981

**Q.** How did the relative growth turn out when `NC(=O)N[C@H]1NC(=O)NC1=O` was run?
**A.** 1.08

**Q.** With `CCOC(=O)Cc1nnc(CC(=O)OCC)[nH]1` as the compound, how does the relative growth read?
**A.** 0.98

**Q.** How did the relative growth turn out when `OC[C@@H](O)[C@@H](O)[C@@H](O)[C@@H](O)[C@@H](O)CO` was run?
**A.** 0.965

**Q.** Which relative growth does the source give for `O=C(C[C@H]1CC[C@H](NC(=O)Cc2ccccn2)[C@H](CO)O1)NCCCN1CCOCC1` here?
**A.** 1.03

**Q.** How did the relative growth turn out when `NCCCC(O)(P(=O)(O)O)P(=O)(O)O.O.O.O.[Na+]` was run?
**A.** 1.15

**Q.** `O=C(C[C@H]1C=C[C@@H](NC(=O)CN2CCOCC2)[C@H](CO)O1)NCc1cccc(F)c1` was tested. Which relative growth did it give?
**A.** 0.926

**Q.** `COCC#Cc1cnc2c(c1)C(=O)N([C@@H](C)CO)C[C@H](C)[C@@H](CN(C)S(=O)(=O)c1cn(C)cn1)O2` was tested. Which relative growth did it give?
**A.** 0.929

**Q.** Which relative growth does the source give for `C=CCSCC=C` here?
**A.** 0.915

**Q.** How did the relative growth turn out when `C[C@H](CO)N1C[C@H](C)[C@H](CN(C)Cc2ccccn2)Oc2cc(C#CCN(C)C)ccc2S1(=O)=O` was run?
**A.** 1.02

**Q.** Which relative growth does the source give for `O=c1[nH]cnc2[nH]ncc12` here?
**A.** 1.06

**Q.** `C/C=C1\[C@H]2C=C(C)C[C@]1(N)c1ccc(=O)[nH]c1C2` was tested. Which relative growth did it give?
**A.** 0.98

**Q.** How did the relative growth turn out when `O=C(Cc1ccccn1)NCC[C@H]1CC[C@H](NC(=O)CN2CCOCC2)[C@H](CO)O1` was run?
**A.** 0.928

**Q.** Which relative growth does the source give for `C[N+](C)(C)CCO.[Cl-]` here?
**A.** 1.17

**Q.** Which relative growth does the source give for `O=C(Oc1cccc2cccnc12)c1ccccc1` here?
**A.** 0.735

**Q.** Which relative growth does the source give for `C[C@H](CO)N1C[C@H](C)[C@H](CN(C)C(=O)CN(C)C)Oc2cc(C#CCN(C)C)ccc2S1(=O)=O` here?
**A.** 1.16

**Q.** `CC(=O)OCC(=O)[C@@]1(O)[C@@H](C)CC2C3CCC4=CC(=O)C=C[C@]4(C)[C@@]3(F)[C@@H](O)C[C@@]21C` (some centres undefined) was tested. Which relative growth did it give?
**A.** 0.895

**Q.** For `CCOc1nc(N)cc(N)c1C#N`, which relative growth is on record?
**A.** 0.988

**Q.** With `CN(C)C(=O)C[C@@H]1CC[C@@H](NC(=O)C2CCOCC2)[C@@H](CO)O1` as the compound, how does the relative growth read?
**A.** 1.11

**Q.** `O=C(O[C@H]1[C@H](O)[C@@H](CO)O[C@H](c2c(O)cc(O)c(C(=O)c3ccc(O)cc3)c2O)[C@H]1OC(=O)c1cc(O)c(O)c(O)c1)c1cc(O)c(O)c(O)c1` was tested. Which relative growth did it give?
**A.** 1.05

**Q.** How did the relative growth turn out when `COc1ccc(S(=O)(=O)N[C@H]2C=C[C@@H](CC(=O)N3CCN(c4ccccc4)CC3)O[C@@H]2CO)cc1` was run?
**A.** 0.97

**Q.** With `Cc1cc(O)c2c(c1)C(=O)c1cc(O)cc(O)c1C2=O` as the compound, how does the relative growth read?
**A.** 0.854

**Q.** How did the relative growth turn out when `COc1cc2c(cc1OC)CN(C(=O)[C@H]1[C@@H]3C(=O)O[C@@H](c4ccccc4)[C@@H](c4ccccc4)N3[C@@H](c3ccc(O)cc3)[C@]13C(=O)Nc1ccc(C#CC4=CCCCC4)cc13)CC2` was run?
**A.** 1.04

**Q.** With `CC[N+](C)(C)Cc1ccc(Br)cc1.Cc1ccc(S(=O)(=O)[O-])cc1` as the compound, how does the relative growth read?
**A.** 1.13

**Q.** With `O=c1[nH]c2ccsc2c(=O)n1CCO` as the compound, how does the relative growth read?
**A.** 1.01

**Q.** With `CC(C)C[C@H](NP(=O)(O)O[C@H]1O[C@@H](C)[C@@H](O)[C@@H](O)[C@@H]1O)C(=O)N[C@H](Cc1c[nH]c2ccccc12)C(=O)O` as the compound, how does the relative growth read?
**A.** 1.06

**Q.** `O=C(C[C@H]1CC[C@H]2[C@@H](COC[C@@H](O)CN2S(=O)(=O)c2ccc(F)cc2)O1)NCCN1CCCCC1` was tested. Which relative growth did it give?
**A.** 1.05

**Q.** For `Cc1ccc(CSc2ncc(C(F)(F)F)cc2Cl)cc1`, which relative growth is on record?
**A.** 0.909

**Q.** How did the relative growth turn out when `Cl.Fc1ccc([C@@H]2CCNC[C@H]2COc2ccc3c(c2)OCO3)cc1` was run?
**A.** 1.22
